What follows are compounds tested against human neprilysin (EC 3.4.24.11; NEP) (Homo sapiens, UniProt P08473) (assay: In vitro enzyme inhibition assay at human NEP (fluorogenic peptide substrate)). Settings: recombinant human NEP; 37° C.; substrate Mca-D-Arg-Arg-Leu-Dap-(Dnp)-OH 10 μM; values given as ranges.
Procedure: In vitro Assays for the Quantitation of Inhibitor Potencies at Human and Rat NEP, and Human ACE
The inhibitory activities of compounds at human and rat neprilysin (EC 3.4.24.11; NEP) and human angiotensin converting enzyme (ACE) were determined using in vitro assays as described below.
Recombinant human NEP and recombinant human ACE were obtained commercially (R&D Systems, Minneapolis, Minn., catalog numbers 1182-ZN and 929-ZN, respectively). The fluorogenic peptide substrate Mca-D-Arg-Arg-Leu-Dap-(Dnp)-OH (Medeiros et al. (1997) Braz. J. Med. Biol. Res. 30:1157-62; Anaspec, San Jose, Calif.) and Abz-Phe-Arg-Lys(Dnp)-Pro-OH (Araujo et al. (2000) Biochemistry 39:8519-8525; Bachem, Torrance, Calif.) were used in the NEP and ACE assays respectively.
The assays were performed in 384-well white opaque plates at 37° C. using the fluorogenic peptide substrates at a concentration of 10 μM in Assay Buffer (NEP: 50 mM HEPES, pH 7.5, 100 mM NaCl, 0.01% polyethylene glycol sorbitan monolaurate (Tween-20), 10 μM ZnSO4; ACE: 50 mM HEPES, pH 7.5, 100 mM NaCl, 0.01% Tween-20, 1 μM ZnSO4).
Test compounds were assayed over the range of concentrations from 10 μM to 20 pM. Test compounds were added to the enzymes and incubated for 30 minute at 37° C. prior to initiating the reaction by the addition of substrate. Reactions were terminated after 20 minutes of incubation at 37° C. by the addition of glacial acetic acid to a final concentration of 3.6% (v/v).
Plates were read on a fluorometer with excitation and emission wavelengths set to 320 nm and 405 nm, respectively Inhibition constants were obtained by nonlinear regression of the data using the equation (GraphPad Software, Inc., San Diego, Calif.): v=v0/[1+(I/K′)] where v is the reaction rate, v0 is the uninhibited reaction rate, I is the inhibitor concentration and K′ is the apparent inhibition constant.
Compounds of the invention were tested in this assay and found to have pKi values at human NEP as follows.

Chains of the proteins cited; added tags and fusions are not shown. Residues count along the entry.
UniProt P08473, 52-750 limits assumed: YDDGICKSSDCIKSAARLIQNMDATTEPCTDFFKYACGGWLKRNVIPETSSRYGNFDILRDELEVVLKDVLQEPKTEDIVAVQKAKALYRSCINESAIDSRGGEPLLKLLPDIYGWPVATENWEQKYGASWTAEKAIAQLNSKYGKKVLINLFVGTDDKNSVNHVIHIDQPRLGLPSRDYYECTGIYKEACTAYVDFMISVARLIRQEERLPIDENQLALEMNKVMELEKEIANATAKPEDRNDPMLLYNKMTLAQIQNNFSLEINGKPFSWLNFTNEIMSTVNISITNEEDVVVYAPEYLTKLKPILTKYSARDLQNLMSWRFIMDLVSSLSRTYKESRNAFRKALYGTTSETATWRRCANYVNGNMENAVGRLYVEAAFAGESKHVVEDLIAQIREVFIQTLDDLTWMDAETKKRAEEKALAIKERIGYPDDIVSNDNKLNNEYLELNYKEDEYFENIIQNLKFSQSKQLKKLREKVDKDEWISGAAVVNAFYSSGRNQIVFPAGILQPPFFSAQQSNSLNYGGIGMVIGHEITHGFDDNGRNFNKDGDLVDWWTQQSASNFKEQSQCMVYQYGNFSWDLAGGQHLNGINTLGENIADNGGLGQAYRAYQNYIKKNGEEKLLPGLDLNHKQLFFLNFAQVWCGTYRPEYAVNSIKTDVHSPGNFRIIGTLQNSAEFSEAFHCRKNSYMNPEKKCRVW

Compound | pKi values at human NEP
CC1=NN(c2ccc(C(=O)N[C@H](Cc3ccccc3Cl)[C@@H](O)C(=O)NO)cc2)C(=O)C1 | 8.0-8.9
O=C(CCCc1ccccc1C(=O)O)N[C@H](Cc1ccccc1Cl)[C@@H](O)C(=O)O | ≧9.0
O=C(N[C@H](Cc1ccccc1)[C@@H](O)C(=O)O)c1ccc(F)c(-c2ccccc2C(=O)O)c1 | 8.0-8.9
O=C(CCCc1ccccc1C(=O)O)N[C@H](Cc1ccccc1C(F)(F)F)[C@@H](O)C(=O)O | 8.0-8.9
O=C(CCCc1ccccc1C(=O)O)N[C@H](Cc1ccccc1)[C@@H](O)C(=O)O | 8.0-8.9
CC1=NN(c2ccc(C(=O)N[C@H](Cc3ccccc3Cl)[C@@H](O)C(=O)O)cc2)C(=O)C1 | 7.0-7.9

From US8686184B2, “Neprilysin inhibitors” (Theravance, Inc., priority 2011, dated 2014)
